Measurements published in paper PMC10976160, “Comparative Pharmacokinetics Research of 13 Bioactive Components of Jieyu Pills in Control and Attention Deficit Hyperactivity Disorder Model Rats Based on UPLC-Orbitrap Fusion MS” (Molecules, 2024).

Assay: Pharmacokinetics in control rats after gavage of JYPs
Assay type: in vivo, Sprague Dawley (SD) rats
Conditions: oral JYPs
Excerpt: According to the established method for the analysis of serum biological samples, the pharmacokinetics of various components of rat serum were investigated after the administration of different dosages of JYPs to control rats.
For the control experiment, healthy male Sprague Dawley (SD) rats of SPF grade ([…] ± 20 g) were purchased from Sipeifu (Beijing) Biotechnology Co., Ltd. (Beijing, China), Animal Quality Certificate No. 110324220102348616. For the ADHD model rats, healthy male SHR rats of SPF grade, weighing 220 ± 20 g, were purchased from SBF (Beijing) Biotechnology Co., Ltd. (Beijing, China), License No. SCXK (Yu) 2019-0010. The animals were accommodated in the Animal Center of Henan University of Traditional Chinese Medicine, which successfully underwent an ethical audit with ethics number DWLL202208003. The animals were bred under controlled conditions at a temperature of 24 °C and a relative humidity of 50 ± 2%. Before the experiment, the animals abstained from eating for 12 h and had unrestricted access to water. […]
We took 200 μL of plasma, added 600 μL of methanol solution and 50 μL of internal standard (100 ng/mL), and subjected it to shaking for 5 min, followed by centrifugation at 4 °C at 12,000 r/min for 10 min. […] The drug concentration in plasma was calculated with the aid of the internal standard.

Oxypaeoniflorin
peak time (Tmax): < 1 h
